Results published in article PMC10108392, “Rimonabant-Based Compounds Bearing Hydrophobic Amino Acid Derivatives as Cannabinoid Receptor Subtype 1 Ligands” (ACS Medicinal Chemistry Letters, 2023).

The chains behind the UniProt entries cited, without tags or fusion partners.
UniProt P20272, whole entry: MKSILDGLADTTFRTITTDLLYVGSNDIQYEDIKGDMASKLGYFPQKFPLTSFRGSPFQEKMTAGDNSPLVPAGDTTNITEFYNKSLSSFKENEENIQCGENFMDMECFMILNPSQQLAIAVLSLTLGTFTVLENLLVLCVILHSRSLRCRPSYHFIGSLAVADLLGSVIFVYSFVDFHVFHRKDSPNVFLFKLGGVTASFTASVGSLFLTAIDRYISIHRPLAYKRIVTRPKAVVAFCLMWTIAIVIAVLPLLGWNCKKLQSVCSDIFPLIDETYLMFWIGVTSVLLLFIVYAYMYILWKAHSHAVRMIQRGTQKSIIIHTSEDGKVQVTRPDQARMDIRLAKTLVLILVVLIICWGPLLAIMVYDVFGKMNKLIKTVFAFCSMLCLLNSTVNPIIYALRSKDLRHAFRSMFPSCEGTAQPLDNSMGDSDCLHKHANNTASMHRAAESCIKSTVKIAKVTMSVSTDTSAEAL

Columns and labels:
mice = details: 100 μg in 20 μL s.c., 15 min before formalin
Protocol: testing. […] Then, the compounds were
Compounds were prepared by freshly diluting
Then, these solutions were injected for
The total time the animal spent licking or biting its paw was calculated.
Then, paw edema was calculated as formerly
Paw volume was quantified using a
Data Analysis and Statistics
Statistically significant differences between
Data were considered statistically
The data and statistical analyses respected the recommendations on experimental design and analysis.

CB1R = target: T1, CB1R (Rattus norvegicus, UniProt P20272); assay: Ligand stimulated [35S]GTPγS binding assay in rat brain membranes; assay type: biochemical; details: read-out: [35S]GTPγS stimulation Emax
T1 construct: Crude membrane fractions were prepared from the brain; from tissue; host or cells: Wistar rat whole brain, crude membrane fraction
Protocol: Our novel chemical compounds were tested in vitro for their binding ability, efficacy, and potency on CB1R in rat brain membrane homogenate (Table 2 and SI, Figure S1). CB1Rs are the most abundant G-protein coupled receptors in the rodent and mammalian brain; therefore, this is an appropriate model to characterize our ligands in a more physiological system.
In Vitro Biological Assays
Preparation of Brain Membrane Homogenates
Wistar rats were locally bred and handled according to the EU Directive 2010/63/EU and to the Regulations on Animal Protection (40/2013. (II. 14.) Korm. r.) of Hungary. Crude membrane fractions were prepared from the brain. […]
was terminated by diluting the samples with an ice-cold wash buffer (50 mM of Tris-HCl, 2.5 mM of EGTA, 5 mM of MgCl2, 0.5% fatty acid free BSA, pH 7.4), followed by repeated washing and rapid filtration through Whatman GF/B glass fiber filters (Whatman Ltd., Maidstone, UK) pre-soaked with 0.1% polyethyleneimine (30 min before the filtration). […] Filters were air-dried and immersed into Ultima Gold MV scintillation cocktail, and then radioactivity was measured with a TRI-CARB 2100TR liquid scintillation analyzer (Packard, Perkin Elmer, Waltham, MA, USA). […]
mM of NaCl, 3 mM of MgCl2 and 1 mM of EGTA in a 50 mM Tris-HCl buffer (pH 7.4) for 60 min at 30 °C. Basal [35S]GTPγS binding was measured in the absence of ligands and set as 100%. […]

SMILES | formalin test, late phase (licking activity 15 to 40 min) (mice) | Emax (CB1R) [%]
CNC(=O)[C@@H](NC(=O)c1nn(-c2ccc(Cl)cc2)c(-n2cccc2)c1C)C(C)(C)C [Compound 34, RS2691-tLeu-NHCH3] | less efficacious | –
Cc1c(C(=O)NN2CCCCC2)nn(-c2ccc(Cl)cc2Cl)c1-c1ccc(Cl)cc1 [rimonabant, N-(piperidin-1-yl)-5-(4-Cl-phenyl)-1-(2,4-di-Cl-phenyl)-4-methyl-1H-pyrazole-3-carboxy-amide] | – | 38 ± 5
